Assay results from ChEMBL document CHEMBL3758107, “Lead optimization of the VU0486321 series of mGlu(1) PAMs. Part 2: SAR of alternative 3-methyl heterocycles and progress towards an in vivo tool” (Bioorg Med Chem Lett, 2016).

Organism: Homo sapiens
Assay: Selectivity ratio of EC50 for human mGlu5 receptor to EC50 for human mGlu1 receptor

`Cc1ccoc1C(=O)Nc1ccc(N2C(=O)c3cccc(C)c3C2=O)cc1F` was tested, and the Ratio EC50 was > 450.
